# Laboratory results taken from patent US12247227B2, “Methods relating to intestinal organ-on-a-chip” (PRESIDENT AND FELLOWS OF HARVARD COLLEGE, priority 2016, dated 2025).
# Tested on: small intestine-on-chip (primary human intestinal epithelium with or without HIMEC endothelium)
# Test: Assessment of intestinal barrier function: apparent permeability (Papp) of fluorescent tracers from apical to basal channel
# Details: at optimal Papp
# From the text: As used herein, “differentially permeable”, e.g., in reference to an intestinal barrier, refers to the intestinal barrier displaying a resistance to the passage of certain molecules as compared to monolayers of, e.g., endothelial cells or undifferentiated intestinal epithelial cells. […] Such assays are described in the Examples herein in detail. Briefly, the apical side of the intestinal barrier is contacted with one or more tracer molecules and the concentration of the tracer later found on the basal side of the intestinal barrier.
# • PROCEDURE. […]
# Intestinal functional assessment and cytokine measurements. […] The concentration of dye that diffused through the membrane into endothelial channel was measured in the effluent, and apparent paracellular permeability (Papp) was calculated using the following formula:
# [formula] where Vrec is volume receiver (endothelial compartment), Crec concentration receiver, A the seeded area and Cdon concentration donor (epithelial compartment). Cytokines released in the medium were quantified using U-PLEX Biomarker Assays for human Fractalkine, GM-CSF, IFN-γ, IL-1α, IL-1β, IL-6, IL-8, and IL-10 (Mesoscale Discovery).
substance,measurement,value
"Dextran, Texas Red, 40,000 Da MW, Neutral",tracer leakage into the basal channel,0.1-0.2%
